The results in this text go back to PubChem BioAssay AID1496 (Sanford-Burnham Center for Chemical Genomics, 2009).

Protein sequences, listed by entry. Tags and fused reporters are not part of them.
UniProt Q01196, whole entry, looked up: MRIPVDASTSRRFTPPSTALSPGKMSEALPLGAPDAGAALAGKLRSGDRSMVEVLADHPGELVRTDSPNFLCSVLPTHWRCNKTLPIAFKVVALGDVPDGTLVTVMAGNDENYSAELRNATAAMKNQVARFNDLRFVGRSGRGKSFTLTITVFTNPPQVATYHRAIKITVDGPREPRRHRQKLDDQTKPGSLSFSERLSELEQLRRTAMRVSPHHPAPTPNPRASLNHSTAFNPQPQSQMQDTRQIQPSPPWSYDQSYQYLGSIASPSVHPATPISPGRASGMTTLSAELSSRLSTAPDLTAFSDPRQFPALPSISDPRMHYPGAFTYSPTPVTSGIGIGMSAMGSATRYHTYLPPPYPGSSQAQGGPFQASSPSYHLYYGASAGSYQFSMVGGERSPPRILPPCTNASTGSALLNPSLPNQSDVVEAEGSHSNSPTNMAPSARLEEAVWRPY
UniProt Q13951, whole entry, looked up: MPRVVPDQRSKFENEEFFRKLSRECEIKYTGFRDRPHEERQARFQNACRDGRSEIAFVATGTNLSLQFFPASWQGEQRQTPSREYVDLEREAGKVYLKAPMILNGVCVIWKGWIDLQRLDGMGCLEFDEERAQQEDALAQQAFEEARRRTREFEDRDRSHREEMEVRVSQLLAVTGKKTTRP

The entries are a selection whose mix differs from that of the whole data set. Some structures show a salt or complex split into parts, the way the source records it. The source made the active and inactive calls.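 Rule for the calls: active = inhibition over about 50% at 20 µM in the single-dose screen (limit read from the data); inactive = the rest.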

In this assay the target is Runt-related transcription factor 1 (Homo sapiens) + Core-binding factor subunit beta (Homo sapiens) (UniProt Q01196+Q13951). Nature of the assay: inhibitors of RUNX1 Runt–CBFb binding, primary screen, biochemical, FRET, Cerulean-Runt, Venus-CBFb, uHTS (AID 1496).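 Note: 0% = DMSO wells and 100% = excess unlabeled CBFb competitor control.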 Particulars: Cerulean-Runt/Venus-CBFb FRET ratio 530/480, 1 h; at 20 µM; hits give high values.
One may read the inhibition as the change of the read-out against control, counted positive when it falls. As to `CP(=S)(Nn1cnnc1)Oc1ccccc1` (configuration not stated), the inhibition is inactive: -0.6%.

Regarding `COc1ccccc1OP(C)(=O)Nc1ccccc1` (configuration not stated), the inhibition is inactive: 0.2%.

Take `CP(=O)(Nc1ccccc1Br)Oc1ccccc1` (configuration not stated): the inhibition was inactive: 0.3%.

Regarding `CCOC(=O)c1ccc(NP(C)(=O)Oc2ccccc2)cc1` (configuration not stated), the inhibition was inactive: 0.3%.

As to `COc1ccccc1OP(C)(=O)Nc1ccc(C)cc1` (configuration not stated), the inhibition was inactive: 1.6%.

As for `Cc1ccc(NP(C)(=O)Oc2ccccc2)c(C)c1` (configuration not stated), the inhibition was inactive: -1.4%.

Consider `COc1ccccc1OP(C)(=O)Nc1cc(Cl)ccc1C` (configuration not stated), for which the inhibition was inactive: -1.6%.

As to `COc1ccc(OP(C)(=O)Nc2cccc(F)c2)cc1` (configuration not stated), the inhibition was inactive: 2.1%.

Take `Cc1cc(C)cc(OP(C)(N)=O)c1` (configuration not stated): the inhibition was inactive: 0.7%.

In the case of `CC(C)(C)c1ccc(OP(C)(=O)Nc2ccc(SC(F)(F)F)cc2)cc1` (configuration not stated), the inhibition was inactive: -6.7%.

Take `Cc1cccc(C)c1OP(C)(N)=O` (configuration not stated): the inhibition is inactive: -0.8%.

Consider `O=[N+]([O-])c1ccc2c(c1)C=Nc1ccccc1O2`, for which the inhibition was inactive: -2.6%.

With `CCN(CC)CCCOC(=O)C(O)(c1ccccc1)c1ccccc1`, the inhibition was inactive: 2.6%.

Regarding `O=[N+]([O-])c1cc([N+](=O)[O-])c(Nc2ccccn2)c([N+](=O)[O-])c1`, the inhibition was inactive: 0.1%.

`Cc1c(NP(C)(=O)Oc2ccc(C(C)C)cc2)c(=O)n(-c2ccccc2)n1C` (configuration not stated): the inhibition was inactive: -5%.

On to `CP(=O)(Nc1ccccn1)Oc1ccccc1` (configuration not stated), for which the inhibition was inactive: -0.1%.

In the case of `COc1ccccc1OP(C)(=O)Nc1ccc(C)cc1C` (configuration not stated), the inhibition was inactive: -0.7%.

Take `COc1ccccc1OP(C)(=O)Nc1ccc(Br)cc1` (configuration not stated): the inhibition is inactive: -1.4%.

Turning to `CN(C)CCOC(=O)C(O)(c1ccccc1)C1CCCC1` (configuration not stated), the inhibition is inactive: 0%.

Turning to `COc1ccc(OP(C)(=O)Nc2ccccn2)cc1` (configuration not stated), the inhibition was inactive: 1.3%.

Turning to `Cc1nc2ccc3ccccc3c2o1.O=[N+]([O-])c1cc([N+](=O)[O-])c(O)c([N+](=O)[O-])c1`, the inhibition is inactive: 10.7%.

As for `CP(=O)(OCCOc1ccccc1)OCCOc1ccccc1`, the inhibition was inactive: -1%.

On to `CP(=O)(Nc1ccc(Cl)cc1Cl)Oc1ccccc1` (configuration not stated), for which the inhibition was inactive: -0.3%.

Regarding `Cc1cc(C)cc(OP(C)(=O)Nc2cccc(C(F)(F)F)c2)c1` (configuration not stated), the inhibition was inactive: -7.6%.

Regarding `COc1ccc(OP(C)(=O)Nc2ccccc2Br)cc1` (configuration not stated), the inhibition was inactive: -2.7%.

Consider `COc1ccccc1OP(C)(=O)Nc1ccc(C)c(C)c1` (configuration not stated), for which the inhibition is inactive: 0.1%.

In the case of `CP(=O)(OC12CC3CC(CC(C3)C1)C2)OC12CC3CC(CC(C3)C1)C2`, the inhibition was inactive: 9.8%.

On to `CCOC(=O)c1ccc(NP(C)(=O)Oc2ccc(Cl)cc2)cc1` (configuration not stated), for which the inhibition was inactive: -1.7%.

On to `CC(C)(C)c1ccc(OP(C)(=O)O)cc1`, for which the inhibition was inactive: 0.6%.

For `COc1ccccc1OP(C)(=O)Nc1ccccc1Br` (configuration not stated), the inhibition is inactive: -1.4%.

Take `CN(C)C(=O)c1c([N+](=O)[O-])cc([N+](=O)[O-])cc1[N+](=O)[O-]`: the inhibition was inactive: 1%.

Take `CCN(CC)CC(O)COC(=O)C(O)(c1ccccc1)C1CCCCC1` (configuration not stated): the inhibition is inactive: 0.8%.

On to `COc1ccc(OP(C)(=O)Nc2ccc(Br)cc2)cc1` (configuration not stated), for which the inhibition is inactive: -2.5%.

For `CP(=O)(Oc1ccccc1)N1CCOC1=O` (configuration not stated), the inhibition is inactive: 0.2%.

For the compound `CCc1ccc(OP(C)(=O)Nc2cccnc2)cc1` (configuration not stated), the inhibition is inactive: -0.5%.

Consider `COc1ccccc1OP(C)(=O)Nc1c(C)n(C)n(-c2ccccc2)c1=O` (configuration not stated), for which the inhibition is inactive: -0.7%.

Consider `O=C(OCCCN1CCCC1)C(O)(c1ccccc1)C1CCCCC1` (configuration not stated), for which the inhibition is inactive: -1.1%.

Take `CP(=O)(Nc1ccc2c(c1)OCCO2)Oc1ccccc1` (configuration not stated): the inhibition was inactive: -0.5%.

In the case of `Cc1ccccc1NP(C)(=O)Nc1ccccc1C`, the inhibition is inactive: -0.9%.

`CP(=O)(Nc1ccc(SC(F)(F)F)cc1)Oc1ccc(F)cc1` (configuration not stated): the inhibition is inactive: -0.5%.

As to `CCOP(C)(=S)SCC(=O)NC(C)(CC)C(=O)O` (configuration not stated), the inhibition was inactive: 1.2%.

Consider `Cc1cc(-c2cccc3ccccc23)c(C)cn1.O=[N+]([O-])c1cc([N+](=O)[O-])c(O)c([N+](=O)[O-])c1`, for which the inhibition was inactive: -1.3%.

Take `O=[N+]([O-])c1cc([N+](=O)[O-])c(NCC2CCS(=O)(=O)C2)c([N+](=O)[O-])c1` (configuration not stated): the inhibition is inactive: 5.6%.

Consider `O=[N+]([O-])c1ccc(OP2(=O)COCCO2)cc1` (configuration not stated), for which the inhibition is inactive: -2.2%.

Turning to `COc1ccc(OP(C)(=O)Nc2cccc(Br)c2)cc1` (configuration not stated), the inhibition is inactive: -1.4%.

With `COc1ccc(NP(C)(=O)Oc2ccccc2OC)cc1` (configuration not stated), the inhibition was inactive: -1.3%.

For `CN(C)CCOC(=O)C(O)(c1ccccc1)C1CCCCC1` (configuration not stated), the inhibition was inactive: -2.1%.

Turning to `CCN(CC)CCCOC(=O)C(O)(c1ccccc1)C1CCCCC1` (configuration not stated), the inhibition is inactive: -0.9%.

`CCCCCOc1ccc(NP(C)(=O)Oc2ccc(Cl)cc2Cl)cc1` (configuration not stated): the inhibition was inactive: -5.8%.

For the compound `CP(=O)(Nc1ccccc1)Oc1ccc(F)cc1` (configuration not stated), the inhibition was inactive: -3.1%.

In the case of `COc1ccc(OP(C)(=O)Nc2ccc(SC(F)(F)F)cc2)cc1` (configuration not stated), the inhibition was inactive: -9.7%.

With `CCOC(=O)c1ccc(NP(C)(=O)Oc2ccc(F)cc2)cc1` (configuration not stated), the inhibition was inactive: -4.3%.

With `O=C(OCCN1CCN(CCOCc2ccccc2)CC1)C(O)(c1ccccc1)c1ccccc1`, the inhibition is inactive: -2.4%.

In the case of `O=C(OC1CN2CCC1CC2)c1ccc([N+](=O)[O-])cc1` (configuration not stated), the inhibition is inactive: 1.7%.

`COc1ccc2c(c1O)-c1c(O)c(OC)cc3c1[C@H](C2)[N+](C)(C)CC3.O=[N+]([O-])c1cc([N+](=O)[O-])c([O-])c([N+](=O)[O-])c1[O-]`: the inhibition was inactive: 5.7%.

For `CC(C)c1ccc(OP(C)(=O)Nc2ccc(SC(F)(F)F)cc2)cc1` (configuration not stated), the inhibition is inactive: -6.3%.

In the case of `CP(=O)(Nc1ccccc1F)Oc1ccccc1` (configuration not stated), the inhibition was inactive: -4.3%.
